Measurements as given in ChEMBL document CHEMBL4814008, “Using porphyrins as albumin-binding molecules to enhance antitumor efficacies and reduce systemic toxicities of antimicrobial peptides” (Eur J Med Chem, 2021).

Sequences of proteins named here, by UniProt entry; tags and fusion partners are left off.
UniProt P02768, whole entry: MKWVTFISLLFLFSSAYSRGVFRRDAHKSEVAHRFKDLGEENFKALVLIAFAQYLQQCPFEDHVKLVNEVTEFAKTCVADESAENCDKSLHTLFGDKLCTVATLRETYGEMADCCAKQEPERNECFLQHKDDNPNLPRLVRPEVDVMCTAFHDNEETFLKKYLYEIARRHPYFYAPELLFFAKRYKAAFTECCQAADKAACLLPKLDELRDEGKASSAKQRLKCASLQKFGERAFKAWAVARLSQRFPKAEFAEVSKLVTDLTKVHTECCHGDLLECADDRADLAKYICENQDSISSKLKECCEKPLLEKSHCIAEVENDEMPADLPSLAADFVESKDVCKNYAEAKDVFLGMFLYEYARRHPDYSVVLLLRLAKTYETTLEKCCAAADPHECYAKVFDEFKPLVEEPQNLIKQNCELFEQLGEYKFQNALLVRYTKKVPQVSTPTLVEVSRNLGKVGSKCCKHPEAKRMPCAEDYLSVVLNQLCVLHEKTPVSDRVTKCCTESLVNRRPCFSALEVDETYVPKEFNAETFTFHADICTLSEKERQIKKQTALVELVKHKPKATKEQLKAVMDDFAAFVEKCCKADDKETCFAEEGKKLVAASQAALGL

Target: Albumin (Homo sapiens, UniProt P02768)
Experiment: Binding affinity to human serum albumin assessed as dissociation constant by fluorescence emission spectrophotometric analysis
Assay type: ADME, cell-free

Q: Which Kd does the source give for `Cc1cc(-c2ccc(/N=N/c3ccc4c(S(=O)(=O)O)cc(S(=O)(=O)O)c(N)c4c3O)c(C)c2)ccc1/N=N/c1ccc2c(S(=O)(=O)O)cc(S(=O)(=O)O)c(N)c2c1O` [EVANS BLUE] here?
A: 2500 nM
